## Binding of CDR-mutated scFvs to a peptide of the spike HR2 region

All variants were tested on one target, the spike HR2 peptide PDVDLGDISGINAS (SARS-CoV-2).

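Phage display of a naive human antibody library on the peptide gave the parent. The variants were designed computationally from a first round of random CDR variants and then made and measured. Group labels follow the data file (En: ensemble of fine-tuned language models; HC: hill climbing; Gen: genetic algorithm; Gibbs: Gibbs sampling; a sequence that several methods proposed may carry one label only). The assay is AlphaSeq: two haploid yeast populations carry antibody and antigen on their surface. After mating in shaken culture at 30 °C for 16 h, diploids were selected and their barcode pairs sequenced. A regression on co-assayed BCL2-family reference pairs converts the normalised counts of each replicate to an apparent Kd. Each pool was mated in six replicate cultures.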

Parent scFv Ab-14: VH joined to VL by the linker GGGGSGGGGSGGGGS. Changes lie in the heavy chain CDRs alone.
VH: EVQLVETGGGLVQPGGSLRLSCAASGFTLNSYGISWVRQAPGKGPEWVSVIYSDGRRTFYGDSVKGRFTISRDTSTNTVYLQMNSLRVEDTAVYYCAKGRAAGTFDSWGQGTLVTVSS
VL: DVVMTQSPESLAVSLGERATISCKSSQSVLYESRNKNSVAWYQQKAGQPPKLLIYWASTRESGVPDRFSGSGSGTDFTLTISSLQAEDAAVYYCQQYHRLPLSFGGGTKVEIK

Each variant is given by its three heavy chain CDRs, as the data file delimits them; those of the parent are GFTLNSYGIS, VIYSDGRRTFYGDSVK, GRAAGTFDS.
This list holds designs with more than six substitutions.
Values are log10 of the apparent Kd in nM; lower means stronger binding.
Where no diploid with the target was found in that replicate, the entry reads "nd": below detection, most likely a poor binder, though not proof of it.
As a blank, each scFv also met three strains without target: over all heavy chain designs, 1% of these pairings were detected, typically at 2.08 and seldom below 0.84.
In the paper, a design with two or fewer of six values counts as a poor binder.
Values of this round are not directly comparable with the first-round values of the same sequences.

| CDR-H1 | CDR-H2 | CDR-H3 | group | replicates, log10 nM |
|---|---|---|---|---|
| GFDLNEYGIS | VIYADGMRTAYADNVK | GNNAGTFDL | En_Gen | 1.23 / 0.95 / 0.40 / 0.56 / 0.48 / 0.50 |
| GPNLQEYGIS | VIYADGIRSAYKDDVK | GQHAGYFLE | En_Gibbs | nd / nd / nd / nd / nd / nd |
| GFDLNEYGIS | VIYADGRRTAYADSVK | GQNAGTFDI | En_Gen | -0.39 / -0.55 / -0.32 / -0.62 / -0.63 / -0.26 |
| GFDLQEYGIS | VIYADGARKSYTNSVK | GVWGATMDV | En_Gibbs | nd / nd / nd / nd / nd / nd |
| GDGLKEYGIS | VIYADGMRTSYVNQVK | GQKSGGFNL | En_Gibbs | nd / nd / nd / nd / nd / nd |
| GFDLDKYGIS | VIYADGSRSVYADDVK | GMLGATFGV | En_Gibbs | nd / nd / nd / nd / nd / nd |
| GMNLDEYGIS | VIYADGLRYHYANTVK | GEMAGFFMD | En_Gibbs | nd / nd / nd / nd / nd / nd |
| GFDLEDYGIS | VIYADGKRTAYADSVK | GEVAGTFDQ | En_Gen | -0.45 / -0.30 / 0.04 / 0.55 / 0.11 / -0.94 |
| GFDLNEYGIS | VIYADGVRTAYVDSVK | GQNAGTFDV | En_Gen | -0.30 / -0.65 / -0.54 / -0.57 / -0.77 / -0.31 |
| GFKLDEYGIS | VIYADGCRKAYADSFK | GKTTFSKFV | En_Gibbs | nd / nd / nd / nd / nd / nd |
| GFDLESYGIS | VIYADGMRTFYADKVK | GENAGTFDI | En_HC | 0.11 / -0.27 / -0.31 / -0.37 / -0.15 / 0.09 |
| GFKLDEYGIS | VIYADGMRTQYADKVK | VGHDGYVVQ | En_Gibbs | nd / nd / nd / nd / nd / nd |
| GFDLDEYGIS | VIYADGRRSAILESVK | GKIAGTLDA | En_Gibbs | -0.48 / -0.77 / -0.61 / 0.02 / -0.77 / -0.64 |
| GFDLGEYGIS | VIYADGKRTACVTNVK | GTFGGTLLD | En_Gibbs | nd / nd / nd / nd / nd / nd |
| GFSLDEMGIS | VIYADGQRTAYVDNVK | SVNGVVVFL | En_Gibbs | nd / nd / nd / nd / nd / nd |
| GFDLNEYGIS | VIYADGRRTFYTDSVK | GQLAGTFDA | En_HC | -0.61 / -0.62 / -0.76 / -0.74 / -0.79 / -0.51 |
| GFDLNEYGIS | VIYADGQRTFYADSVK | GEIAGTFDF | En_HC | -0.30 / -0.20 / -0.51 / -0.47 / -0.27 / -0.59 |
| GDKLEDYGIS | VIYADGRRSAYVENVK | GVYAGYFDV | En_Gibbs | nd / nd / nd / nd / nd / nd |
| GFDLNEYGIS | VIYADGRRTFYSDSVK | GQTAGTFDM | En_HC | -0.47 / -0.61 / -0.58 / -0.65 / -0.60 / -0.43 |
| GESLEEYGIS | VIYADGRRSAYADNVK | GMSGNFGMF | En_Gibbs | nd / nd / nd / nd / nd / nd |
| GFDLDEYGIS | VIYADGMRTYYADSVK | GNVAGTFDM | En_Gen | 0.03 / -0.27 / -0.09 / -0.42 / -0.24 / -0.07 |
| GFDLNEYGIS | VIYADGRRTAYIDSVK | GENAGTFDK | En_HC | -0.56 / -0.50 / -0.95 / -1.02 / -0.76 / -0.83 |
| GFDLDEYGIS | VIYADGVRTAYTDSVK | GEVAGTFDV | En_Gen | -0.22 / -0.45 / -0.41 / -0.41 / -0.60 / -0.33 |
| GFDLGEYGIS | VIYADGQRKSYADAVK | GQSSVYMTA | En_Gibbs | nd / nd / nd / nd / nd / nd |
| GFDLNEYGIS | VIYADGVRTAYADSVK | GNVAGTFDM | En_Gen | -0.59 / -0.54 / -0.45 / -0.58 / -0.56 / -0.46 |
| GFNLDEYGIS | VIYADGRRTFYADSVK | GQVAGTFLV | En_HC | -0.36 / -0.60 / -0.13 / -0.88 / -0.90 / 0.97 |
| GFSLDEYGVS | VIYADGIRTQYTNDVK | GLYSFAFKM | En_Gibbs | nd / nd / nd / nd / nd / nd |
| GFDLNEYGIS | VIYADGRRTFYADSVK | GEVAGTFDM | En_HC | -0.73 / -0.42 / -0.16 / -0.66 / -0.85 / -0.15 |
| GFDLNEYGIS | VIYADGRRTYYVDSVK | GVNAGTFDS | En_HC | -0.47 / -0.58 / -0.63 / -0.74 / -0.40 / -0.56 |
| GFDLNEYGIS | VIYADGRRTYYVDSVK | GQVAGTFDV | En_HC | -0.48 / -0.54 / -0.83 / -0.55 / -1.11 / -0.50 |

Picked from the list: the 2 lowest averages where every replicate gave a value.

{"CDR-H1": "GFDLNEYGIS", "CDR-H2": "VIYADGRRTAYIDSVK", "CDR-H3": "GENAGTFDK", "group": "En_HC", "replicates, log10 nM": "-0.56 / -0.50 / -0.95 / -1.02 / -0.76 / -0.83"}
{"CDR-H1": "GFDLNEYGIS", "CDR-H2": "VIYADGRRTFYTDSVK", "CDR-H3": "GQLAGTFDA", "group": "En_HC", "replicates, log10 nM": "-0.61 / -0.62 / -0.76 / -0.74 / -0.79 / -0.51"}

Source: Li et al. 2023 (doi:10.1038/s41467-023-39022-2), MIT Lincoln Laboratory and A-Alpha Bio; data file from the FLAb repository.